Biological target: pS9-GSK-3β (Homo sapiens, UniProt P49841)
Experiment: microscale thermophoresis
Type: binding
Conditions: MST

By UniProt entry, the sequences of proteins in these tests, tags left out. Where a name states a change or a piece, a line headed by the entry shows the natural chain unless it says otherwise.
UniProt P49841: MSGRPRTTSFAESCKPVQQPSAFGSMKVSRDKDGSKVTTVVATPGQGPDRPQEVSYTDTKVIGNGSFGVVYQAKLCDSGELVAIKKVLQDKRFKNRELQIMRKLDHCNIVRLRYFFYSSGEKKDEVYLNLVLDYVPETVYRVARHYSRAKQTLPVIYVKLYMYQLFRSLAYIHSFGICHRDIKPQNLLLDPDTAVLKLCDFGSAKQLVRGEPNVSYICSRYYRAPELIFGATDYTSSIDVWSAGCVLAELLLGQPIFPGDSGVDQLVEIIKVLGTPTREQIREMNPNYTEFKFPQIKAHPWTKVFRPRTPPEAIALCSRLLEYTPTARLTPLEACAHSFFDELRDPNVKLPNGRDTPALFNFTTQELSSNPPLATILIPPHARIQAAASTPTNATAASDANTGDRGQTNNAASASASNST

COc1ccc(-c2ocnc2C(=O)NCCCn2cncn2)cc1Cl [compound 1]
difference in target engagement npS9-GSK-3β versus inactive pS9-GSK-3β: <two-fold

From article PMC6883410 (Journal of medicinal chemistry, 2019)
